The results in this text go back to paper PMC4216217 (Journal of Medicinal Chemistry, 2014).

Protein sequences, listed by entry. Tags and fused reporters are not part of them.
UniProt P19020, whole entry: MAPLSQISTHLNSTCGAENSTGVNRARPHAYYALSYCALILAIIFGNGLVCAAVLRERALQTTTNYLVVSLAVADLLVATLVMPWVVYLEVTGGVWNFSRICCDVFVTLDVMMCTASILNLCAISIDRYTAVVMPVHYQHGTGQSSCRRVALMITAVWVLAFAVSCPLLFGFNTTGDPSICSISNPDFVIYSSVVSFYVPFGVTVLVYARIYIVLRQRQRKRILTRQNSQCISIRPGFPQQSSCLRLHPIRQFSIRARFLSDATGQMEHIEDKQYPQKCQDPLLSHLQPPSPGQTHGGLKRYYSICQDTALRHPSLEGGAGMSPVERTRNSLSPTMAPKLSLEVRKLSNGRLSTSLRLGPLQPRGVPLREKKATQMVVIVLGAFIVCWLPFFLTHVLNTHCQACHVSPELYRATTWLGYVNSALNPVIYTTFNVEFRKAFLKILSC

This experiment concerns the target rat D3 dopamine receptors (Rattus norvegicus, UniProt P19020). Type of experiment: binding.

SMILES strings stand for the structures. Some results are limits rather than exact numbers.

For `CCCN(CC[C@]1(O)C[C@@H](NC(=O)c2ccc3ccccc3c2)C1)[C@H]1C[C@@H]1c1ccc(Cl)cc1` [(1S,2R)-11, N-(cis-3-(2-(((1S,2R)-2-(4-Chlorophenyl)cyclopropyl)(propyl)-amino)ethyl)-3-hydroxycyclobutyl)-2-naphthamide], the “selectivity D3/D2” value is above 218.
Turning to `CCCN(CC[C@]1(O)C[C@@H](NC(=O)c2ccc3ccccc3c2)C1)C1CC1c1ccc(Cl)cc1` (relative stereo) [(±)-11, N-(cis-3-(2-((((±)-trans)-2-(4-Chlorophenyl)cyclopropyl)(propyl)-amino)ethyl)-3-hydroxycyclobutyl)-2-naphthamide], the “selectivity D3/D2” value is given as above 21000 and the “selectivity for rat D3 receptor over rat D2 receptor” value is recorded as above 10000.
In the case of `CCCN(CC[C@]1(O)C[C@@H](NC(=O)c2ccc3ccccc3c2)C1)[C@@H]1C[C@H]1c1ccc(Cl)cc1` [(1R,2S)-11, N-(cis-3-(2-(((1R,2S)-2-(4-Chlorophenyl)cyclopropyl)(propyl)-amino)ethyl)-3-hydroxycyclobutyl)-2-naphthamide], the “selectivity D3/D2” value is recorded as above 100000 and the “selectivity for rat D3 receptor over rat D1-like receptors” value is given as above 9000 fold.
